Assay results reported in patent US6476021B1 (priority 1997, dated 2002).

Assay: Toxicity test, peroral administration for 4 days
Details: male Wistar rats, daily dose 100 mg/kg

5-benzyl-4H[6]-azaindolo[3,2,1-ij]quinolin-4-one
death of animals until the next day after the end of administration: none of the animals were found to be dead
